# Data: patent US8173813B2, “Quinolone and tetrahydroquinolone and related compounds having NOS inhibitory activity” (NeurAxon, Inc., priority 2007, dated 2012)
# Target: Nitric oxide synthase (neuronal, human recombinant) nNOS (Homo sapiens, UniProt P29475)
# Assay: Human nNOS enzyme assay ([3H]L-arginine to [3H]L-citrulline)
# Type: biochemical
# Conditions: human enzymes; ratio of eNOS IC50 to nNOS IC50
row,Compound,Selectivity eNOS/nNOS
1,"CNCCN1CCCCc2cc(NC(=N)c3cccs3)ccc21 [Example 36, N-(1-(2-(Methylamino)ethyl)-2,3,4,5-tetrahydro-1H-benzo[b]azepin-7-yl)thiophene-2-carboximidamide]",123
2,"CN(C)CCN1CCCCc2cc(NC(=N)c3cccs3)ccc21.Cl.Cl [Example 28, N-(1-(2-(Dimethylamino)ethyl)-2,3,4,5-tetrahydro-1H-benzo[b]azepin-7-yl)thiophene-2-carboximidamide dihydrochloride]",225

# Other lines, results leading:
row,Selectivity eNOS/nNOS,Compound
1,29.6,"N=C(Nc1ccc2c(c1)CCCCN2CCN1CCCCC1)c1cccs1 [Example 40, N-(1-(2-(Piperidin-1-yl)ethyl)-2,3,4,5-tetrahydro-1H-benzo[b]azepin-7-yl)thiophene-2-carboximidamide]"
2,95.7,"CNCCCN1CCCc2cc(NC(=N)c3cccs3)ccc21 [Example 63, N-(1-(3-(methylamino)propyl)-2,3,4-tetrahydroquinolin-6-yl)thiophene-2-carboximidamide]"
3,17,"CN1CCCC1CCN1CCCCc2cc(NC(=N)c3cccs3)ccc21 (stereo not drawn) [Example 45, N-(1-(2-(1-Methylpyrrolidin-2-yl)ethyl)-2,3,4,5-tetrahydro-1H-benzo[b]azepin-7-yl)thiophene-2-carboximidamide]"

# Target: nNOS (Rat) (Rattus norvegicus, UniProt P29476)
# Assay: nNOS (Rat) enzyme assay
# Type: biochemical
# Conditions: rodent enzymes; values in parentheses
# Experimental: nNOS (Rat), eNOS (Rat) and iNOS (Mouse) Enzyme Assay Recombinant rat or mouse NO synthases (iNOS, eNOS, nNOS) were expressed in Sf9 cells (Sigma), 36 mg prot/ml (Bradford). […] Inhibition of NOS was determined by measuring the formation of L-[3H] citrulline from L-[3H] arginine. […] Stop buffer:100 mM Hepes, pH 5.5, 3 mM EDTA, 3 mM EGTA.
row,Selectivity eNOS/nNOS (rodent data in parentheses),Compound
1,(321),"CN(C)CCN1CCCCc2cc(NC(=N)c3cccs3)ccc21.Cl.Cl [Example 28, N-(1-(2-(Dimethylamino)ethyl)-2,3,4,5-tetrahydro-1H-benzo[b]azepin-7-yl)thiophene-2-carboximidamide dihydrochloride]"
